Source: PubChem BioAssay AID2732 (Emory University Molecular Libraries Screening Center, 2010)
This is a selection; strong and weak results do not stand in their true shares. Some salts and complexes are drawn in separate pieces, as the source files them; their charges need not balance. Activity calls are given as the source filed them.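 The calls were made as follows: active = compounds that reduced the stress-induced luciferase reporter signal by more than about 70% of percent inhibition (limit read from the data); inactive = the rest.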

Experiment: inhibitors of CHOP promoter induction, primary screen, cell-based, unfolded protein response, luciferase reporter (AID 2732);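 also: 0% = tunicamycin plus vehicle and 100% = wells without tunicamycin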
Conditions: CHO-K1 CHOP-promoter luciferase, tunicamycin-induced, 15-18 h; at 10 µM; stronger effect = higher value

Q: Which inhibition does the source give for `O=C(OCCN1CCN(CCOCc2ccccc2)CC1)C(O)(c1ccccc1)c1ccccc1` here?
A: inactive: 15.3%

Q: For `O=C(OC1CN2CCC1CC2)c1ccc([N+](=O)[O-])cc1` (centres undefined), which inhibition is on record?
A: inactive: -10.8%

Q: For `COc1ccc2c(c1O)-c1c(O)c(OC)cc3c1[C@H](C2)[N+](C)(C)CC3.O=[N+]([O-])c1cc([N+](=O)[O-])c([O-])c([N+](=O)[O-])c1[O-]`, which inhibition is on record?
A: inactive: -5.36%

Q: Which inhibition does the source give for `CC(C)c1ccc(OP(C)(=O)Nc2ccc(SC(F)(F)F)cc2)cc1` (centres undefined) here?
A: inactive: 62.2%

Q: With `CP(=O)(Nc1ccccc1F)Oc1ccccc1` (centres undefined) as the compound, how does the inhibition read?
A: inactive: 6.87%

Q: Which inhibition does the source give for `CCN(CC)CCCOC(=O)C(O)(c1ccccc1)C1CCCCC1` (centres undefined) here?
A: inactive: 13.4%

Q: With `CCCCCOc1ccc(NP(C)(=O)Oc2ccc(Cl)cc2Cl)cc1` (centres undefined) as the compound, how does the inhibition read?
A: active: 94%

Q: For `CP(=O)(Nc1ccccc1)Oc1ccc(F)cc1` (centres undefined), which inhibition is on record?
A: inactive: 19.4%

Q: For `COc1ccc(OP(C)(=O)Nc2ccc(SC(F)(F)F)cc2)cc1` (centres undefined), which inhibition is on record?
A: inactive: 30.9%

Q: For `CCOC(=O)c1ccc(NP(C)(=O)Oc2ccc(F)cc2)cc1` (centres undefined), which inhibition is on record?
A: inactive: 5.44%

Q: With `O=[N+]([O-])c1cc([N+](=O)[O-])c(NCC2CCS(=O)(=O)C2)c([N+](=O)[O-])c1` (centres undefined) as the compound, how does the inhibition read?
A: inactive: -32.4%

Q: Which inhibition does the source give for `Cc1cc(-c2cccc3ccccc23)c(C)cn1.O=[N+]([O-])c1cc([N+](=O)[O-])c(O)c([N+](=O)[O-])c1` here?
A: inactive: 12%

Q: Which inhibition does the source give for `O=[N+]([O-])c1ccc(OP2(=O)COCCO2)cc1` (centres undefined) here?
A: inactive: -19.2%

Q: With `COc1ccc(OP(C)(=O)Nc2cccc(Br)c2)cc1` (centres undefined) as the compound, how does the inhibition read?
A: inactive: 9.29%

Q: With `COc1ccc(NP(C)(=O)Oc2ccccc2OC)cc1` (centres undefined) as the compound, how does the inhibition read?
A: inactive: 2.07%

Q: Which inhibition does the source give for `CN(C)CCOC(=O)C(O)(c1ccccc1)C1CCCCC1` (centres undefined) here?
A: inactive: 6.21%

Q: With `CP(=O)(Nc1ccc2c(c1)OCCO2)Oc1ccccc1` (centres undefined) as the compound, how does the inhibition read?
A: inactive: -14.1%

Q: Which inhibition does the source give for `Cc1ccccc1NP(C)(=O)Nc1ccccc1C` here?
A: inactive: -11.7%

Q: With `CP(=O)(Nc1ccc(SC(F)(F)F)cc1)Oc1ccc(F)cc1` (centres undefined) as the compound, how does the inhibition read?
A: inactive: 27.1%

Q: For `CCOP(C)(=S)SCC(=O)NC(C)(CC)C(=O)O` (centres undefined), which inhibition is on record?
A: inactive: -10.8%

Q: For `CP(=O)(Nc1ccc(Cl)cc1)Oc1ccc(F)cc1` (centres undefined), which inhibition is on record?
A: inactive: -3.98%

Q: For `COc1ccccc1OP(C)(=O)Nc1ccccc1Br` (centres undefined), which inhibition is on record?
A: inactive: -16.6%

Q: With `CC(C)(C)c1ccc(OP(C)(=O)O)cc1` as the compound, how does the inhibition read?
A: inactive: 4.64%

Q: Which inhibition does the source give for `CN(C)C(=O)c1c([N+](=O)[O-])cc([N+](=O)[O-])cc1[N+](=O)[O-]` here?
A: inactive: -72%

Q: For `N#[O+].[C-]#N.[C-]#N.[C-]#N.[C-]#N.[C-]#N.[Fe+2].[Na+].[Na+]`, which inhibition is on record?
A: inactive: -4.33%

Q: For `CCN(CC)CC(O)COC(=O)C(O)(c1ccccc1)C1CCCCC1` (centres undefined), which inhibition is on record?
A: inactive: 13.1%

Q: For `COc1ccc(OP(C)(=O)Nc2ccc(Br)cc2)cc1` (centres undefined), which inhibition is on record?
A: inactive: 34.6%

Q: Which inhibition does the source give for `CP(=O)(Oc1ccccc1)N1CCOC1=O` (centres undefined) here?
A: inactive: 19.5%

Q: Which inhibition does the source give for `CCc1ccc(OP(C)(=O)Nc2cccnc2)cc1` (centres undefined) here?
A: inactive: 28.5%

Q: With `O=C(OCCCN1CCCC1)C(O)(c1ccccc1)C1CCCCC1` (centres undefined) as the compound, how does the inhibition read?
A: inactive: 3.23%

Q: For `CP(=O)(OC12CC3CC(CC(C3)C1)C2)OC12CC3CC(CC(C3)C1)C2`, which inhibition is on record?
A: active: 79.1%

Q: Which inhibition does the source give for `CCOC(=O)c1ccc(NP(C)(=O)Oc2ccc(Cl)cc2)cc1` (centres undefined) here?
A: inactive: 26.2%

Q: With `Cc1nc2ccc3ccccc3c2o1.O=[N+]([O-])c1cc([N+](=O)[O-])c(O)c([N+](=O)[O-])c1` as the compound, how does the inhibition read?
A: inactive: 9.38%

Q: For `CP(=O)(Nc1ccc(Cl)cc1Cl)Oc1ccccc1` (centres undefined), which inhibition is on record?
A: inactive: 6.53%

Q: For `CP(=O)(OCCOc1ccccc1)OCCOc1ccccc1`, which inhibition is on record?
A: inactive: 6.35%

Q: For `Cc1cc(C)cc(OP(C)(=O)Nc2cccc(C(F)(F)F)c2)c1` (centres undefined), which inhibition is on record?
A: inactive: 46.7%

Q: Which inhibition does the source give for `COc1ccc(OP(C)(=O)Nc2ccccc2Br)cc1` (centres undefined) here?
A: inactive: 13.5%

Q: Which inhibition does the source give for `COc1ccccc1OP(C)(=O)Nc1ccc(C)c(C)c1` (centres undefined) here?
A: inactive: 4.52%

Q: For `Cc1c(NP(C)(=O)Oc2ccc(C(C)C)cc2)c(=O)n(-c2ccccc2)n1C` (centres undefined), which inhibition is on record?
A: inactive: -1.3%

Q: Which inhibition does the source give for `O=[N+]([O-])c1cc([N+](=O)[O-])c(Nc2ccccn2)c([N+](=O)[O-])c1` here?
A: inactive: 3.96%

Q: With `CCc1ccc(OP(C)(=O)O)cc1` as the compound, how does the inhibition read?
A: inactive: -17.2%

Q: With `CP(=O)(Nc1ccccn1)Oc1ccccc1` (centres undefined) as the compound, how does the inhibition read?
A: inactive: -18.8%

Q: For `COc1ccccc1OP(C)(=O)Nc1ccc(C)cc1C` (centres undefined), which inhibition is on record?
A: inactive: 6.57%

Q: For `COc1ccccc1OP(C)(=O)Nc1ccc(Br)cc1` (centres undefined), which inhibition is on record?
A: inactive: 13.7%

Q: For `CN(C)CCOC(=O)C(O)(c1ccccc1)C1CCCC1` (centres undefined), which inhibition is on record?
A: inactive: 22.4%

Q: With `COc1ccc(OP(C)(=O)Nc2ccccn2)cc1` (centres undefined) as the compound, how does the inhibition read?
A: inactive: 2.35%

Q: With `CCN(CC)CCCOC(=O)C(O)(c1ccccc1)c1ccccc1` as the compound, how does the inhibition read?
A: inactive: 0.06%

Q: With `CCOC(=O)c1ccc(NP(C)(=O)Oc2ccccc2)cc1` (centres undefined) as the compound, how does the inhibition read?
A: inactive: 22.9%

Q: With `COc1ccccc1OP(C)(=O)Nc1ccc(C)cc1` (centres undefined) as the compound, how does the inhibition read?
A: inactive: -35.9%

Q: Which inhibition does the source give for `Cc1ccc(NP(C)(=O)Oc2ccccc2)c(C)c1` (centres undefined) here?
A: inactive: 22.7%

Q: Which inhibition does the source give for `COc1ccccc1OP(C)(=O)Nc1cc(Cl)ccc1C` (centres undefined) here?
A: inactive: -14.9%

Q: With `COc1ccc(OP(C)(=O)Nc2cccc(F)c2)cc1` (centres undefined) as the compound, how does the inhibition read?
A: inactive: -5.82%

Q: Which inhibition does the source give for `Cc1cc(C)cc(OP(C)(N)=O)c1` (centres undefined) here?
A: inactive: -1.62%

Q: For `CC(C)(C)c1ccc(OP(C)(=O)Nc2ccc(SC(F)(F)F)cc2)cc1` (centres undefined), which inhibition is on record?
A: inactive: 63.6%

Q: For `Cc1cccc(C)c1OP(C)(N)=O` (centres undefined), which inhibition is on record?
A: inactive: -8.54%

Q: Which inhibition does the source give for `O=[N+]([O-])c1ccc2c(c1)C=Nc1ccccc1O2` here?
A: inactive: -35.9%

Q: Which inhibition does the source give for `CP(=S)(Nn1cnnc1)Oc1ccccc1` (centres undefined) here?
A: inactive: -11.5%

Q: For `COc1ccccc1OP(C)(=O)Nc1ccccc1` (centres undefined), which inhibition is on record?
A: inactive: -24.1%

Q: For `CP(=O)(Nc1ccccc1Br)Oc1ccccc1` (centres undefined), which inhibition is on record?
A: inactive: -2.85%

Q: Which inhibition does the source give for `CCOP(C)(=S)SCC(=O)NC(C)C(=O)O` (centres undefined) here?
A: inactive: -19%

Q: With `CCOC(=O)c1ccc(NP(C)(=O)Oc2ccc(OC)cc2)cc1` (centres undefined) as the compound, how does the inhibition read?
A: inactive: 8.7%

Q: With `CP(=O)(Nc1ccccn1)Oc1ccc(Cl)cc1` (centres undefined) as the compound, how does the inhibition read?
A: inactive: 20.7%

Q: Which inhibition does the source give for `CP(=O)(Nc1ccc(SC(F)(F)F)cc1)Oc1ccc(Cl)cc1` (centres undefined) here?
A: active: 71.1%

Q: For `Cc1cccc(C)c1OP(C)(=O)Nc1ccc(SC(F)(F)F)cc1` (centres undefined), which inhibition is on record?
A: active: 76.1%
